Yeast mating assay 1: variants of the scFv Ab-14

The target is the same throughout: PDVDLGDISGINAS, from the HR2 region of SARS-CoV-2 spike.

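The parent was found by panning a naive human phage display library on the peptide. Library AAYL50 holds single substitutions and randomly drawn double and triple substitutions in the CDRs. The scFvs were displayed on barcoded MATa yeast, the peptide on MATalpha yeast. The frequency of each diploid, read from paired DNA barcodes, reflects how well the two displayed proteins bind. Scores were corrected for input abundance and mapped to Kd with protein pairs of known affinity run in the same pool. Each pool was mated in three replicate cultures.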

Ab-14 is the parent antibody, in scFv form: VH, then three GGGGS repeats, then VL. The heavy chain is unchanged in all variants.
VH: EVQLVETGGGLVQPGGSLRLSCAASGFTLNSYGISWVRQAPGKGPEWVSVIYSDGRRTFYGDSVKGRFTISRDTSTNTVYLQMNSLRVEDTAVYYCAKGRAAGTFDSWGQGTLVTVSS
VL: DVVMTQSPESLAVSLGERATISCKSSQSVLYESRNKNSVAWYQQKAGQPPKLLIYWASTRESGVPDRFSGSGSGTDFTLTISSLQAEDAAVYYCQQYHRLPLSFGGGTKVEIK

Substitutions are numbered in sequence along the VL above, starting at 1 (not Kabat). Every variant below is changed at S26 of the VL (sequential numbering). Affinities are written as log10 Kd with Kd in nM; a lower number is a better binder. Replicates are averaged; those with no signal do not enter the mean. "nd" marks a missing value. The strain was present, yet no cells mated with the target were sequenced in any replicate, which points to weak or no binding. As a blank, each scFv also met three strains without target: over library AAYL50, 18% of these pairings were detected, typically at 4.19 and seldom below 2.99.

For S26L/E61Y/P101N, the assay gave nd (0 of 3 replicates).
For S26H/S38K/Q95P, the assay gave nd (0 of 3 replicates).
For S26T/L30K/L102K, the assay gave 2.98 (1 of 3 replicates).
For S26Q/N35C/K36V, the assay gave 1.94 (3 of 3 replicates).
For S26C/S38W/R60V, the assay gave 5.25 (1 of 3 replicates).
For S26N/S28D/V29G, the assay gave 0.53 (3 of 3 replicates).
For S26D/V29N/T59I, the assay gave 0.24 (3 of 3 replicates).
For S26Y/V39R/T59D, the assay gave 2.58 (1 of 3 replicates).
For S26Q/S38E/Q96S, the assay gave 1.77 (3 of 3 replicates).
For S25A/S26P/E32I, the assay gave 1.74 (3 of 3 replicates).
For S26Y/V29H/T59W, the assay gave 1.39 (3 of 3 replicates).
For S26P/S38W/R99V, the assay gave 2.22 (1 of 3 replicates).
For S26Q/R60D/P101A, the assay gave nd (0 of 3 replicates).
For S26E/L30A/R60D, the assay gave nd (0 of 3 replicates).
For S26D/T59P/Q95D, the assay gave 5.49 (1 of 3 replicates).
For S26P/N37W/L102R, the assay gave 2.75 (2 of 3 replicates).
For S26A/E32L/E61S, the assay gave 2.27 (3 of 3 replicates).
For S26R/L30W/N37V, the assay gave 2.94 (2 of 3 replicates).
For S26E/L30W/R99K, the assay gave 0.74 (3 of 3 replicates).
For S26H/S33R/Y97E, the assay gave nd (0 of 3 replicates).
For S26L/A40L/E61N, the assay gave 4.59 (2 of 3 replicates).
For S26D/R34F/L100T, the assay gave 5.20 (1 of 3 replicates).
For S26T/R34E/A40Y, the assay gave nd (0 of 3 replicates).
For S26K/K36M/S58T, the assay gave 0.82 (3 of 3 replicates).
For S26R/E32V/S38N, the assay gave 3.79 (2 of 3 replicates).
For S26V/E32Y/S33G, the assay gave 2.45 (3 of 3 replicates).
For S26G/L30Y/Q96F, the assay gave 3.60 (3 of 3 replicates).
For S26G/T59H/Y97V, the assay gave 4.55 (3 of 3 replicates).
For S26F/S28V/E32M, the assay gave 3.51 (3 of 3 replicates).
For S26V/K36E/H98W, the assay gave 1.95 (3 of 3 replicates).
For S26F/E61R/L102D, the assay gave nd (0 of 3 replicates).
For S26A/E32R/A57S, the assay gave 2.71 (3 of 3 replicates).
For S26G/A57V/H98A, the assay gave 1.13 (3 of 3 replicates).
For S26E/Y31H/S33T, the assay gave 2.67 (3 of 3 replicates).
For S26K/V39P/S58G, the assay gave 4.87 (1 of 3 replicates).
For K24N/S26G/V29L, the assay gave 0.97 (3 of 3 replicates).
For S26M/L102M/S103E, the assay gave 3.85 (3 of 3 replicates).
For S26M/S33E/T59A, the assay gave 2.86 (3 of 3 replicates).
For S26M/Q96F, the assay gave 2.16 (3 of 3 replicates).
For S26G/A40D/R99L, the assay gave nd (0 of 3 replicates).
For S26V/T59L/Q95M, the assay gave nd (0 of 3 replicates).
For S26N/N35L/W56F, the assay gave 1.76 (3 of 3 replicates).
For S26P/L30E, the assay gave 1.10 (3 of 3 replicates).
For S26P/E61K/R99G, the assay gave 5.58 (1 of 3 replicates).
For S26Q/V39S/L102R, the assay gave nd (0 of 3 replicates).
For S26M/Y31K/R34I, the assay gave 1.50 (3 of 3 replicates).
For S26Q/Y97R/L100Y, the assay gave 4.09 (2 of 3 replicates).
For S26T/S33E/H98K, the assay gave 5.79 (1 of 3 replicates).

Excerpt, the first 4 entries:

With S26L/E61Y/P101N the result was nd (0 of 3 replicates).
With S26H/S38K/Q95P the result was nd (0 of 3 replicates).
With S26T/L30K/L102K the result was 2.98 (1 of 3 replicates).
With S26Q/N35C/K36V the result was 1.94 (3 of 3 replicates).

Source: Engelhart et al. 2022 (doi:10.1038/s41597-022-01779-4), MIT Lincoln Laboratory and A-Alpha Bio; data file from the FLAb repository.